Literature values, collected in paper PMC8198056, “Antinociceptive Efficacy of the µ-Opioid/Nociceptin Peptide-Based Hybrid KGNOP1 in Inflammatory Pain without Rewarding Effects in Mice: An Experimental Assessment and Molecular Docking” (Molecules, 2021).

Chains of the proteins cited; added tags and fusions are not shown. Lines headed by an entry give the natural chain unless they say otherwise; changes in a name come on top.
UniProt P41146: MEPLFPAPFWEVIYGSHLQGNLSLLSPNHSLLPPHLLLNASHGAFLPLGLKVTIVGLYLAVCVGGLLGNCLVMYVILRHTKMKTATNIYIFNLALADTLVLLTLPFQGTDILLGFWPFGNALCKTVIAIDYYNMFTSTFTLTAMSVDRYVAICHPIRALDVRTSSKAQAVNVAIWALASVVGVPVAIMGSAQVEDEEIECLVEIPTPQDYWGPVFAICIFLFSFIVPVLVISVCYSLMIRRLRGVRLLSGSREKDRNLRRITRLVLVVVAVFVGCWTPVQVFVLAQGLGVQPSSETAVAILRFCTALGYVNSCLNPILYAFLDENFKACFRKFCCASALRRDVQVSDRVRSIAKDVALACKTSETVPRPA

Target: T1, human NOP receptor (Homo sapiens, UniProt P41146)
T1 construct: expressed in transfected cells; host or cells: CHO (CHO-hNOP; gift of Lawrence Toll, SRI International)
Design: method as in PMID 27035422
Conditions: forskolin-stimulated cAMP assay, HEK293 human NOP; cited from earlier work

## CC[C@H](C)[C@H](NC(=O)[C@H](CCCNC(=N)N)NC(=O)[C@H](Cc1ccc(O)cc1)NC(=O)[C@H](Cc1ccc(O)cc1)NC(=O)[C@H](CCCNC(=N)N)NC(=O)CCN1Cc2ccccc2C[C@H](NC(=O)[C@@H](CCCNC(=N)N)NC(=O)[C@@H](N)Cc2c(C)cc(O)cc2C)C1=O)C(=O)N[C@@H](CCCCN)C(N)=O [KGNOP1, H-Dmt-D-Arg-Aba-β-Ala-Arg-Tyr-Tyr-Arg-Ile-Lys-NH2]
  pA2 (antagonist profile to the NOP receptor): 5.39
